According to PubChem BioAssay AID720511 (Broad Institute, 2013):
The list shows a part of the results, in another mix than the full data. Calls of active or inactive are those of the source.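 Rule for the calls: active = mean added fluorescence quench of at least 8% versus neutral control, with both replicates also reaching 8%; inconclusive = only one of the mean or replicate conditions met; inactive = mean below 8% and not both replicates reaching 8%.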

Assay: F508del CFTR correction, initial screen, CFBE line, single point (AID 720511);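 note: cells transiently co-express mutant CFTR-F508del with the halide-sensitive YFP; corrector assay measuring rescue of mutant channel to the surface after 24 h compound exposure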
Conditions: CFBE cells, YFP halide quenching, at 7.58 µM, active compounds read high, % fluorescence drop versus neutral controls, stimulated with forskolin plus potentiator P3
For `O=C(Nc1cc([As](=O)(O)O)ccc1O)c1ccccc1`, the activity (quench increase) was inactive: -3.6%. For `O=P1(N(CCCl)CCCl)OCCCS1` (centres undefined), the activity (quench increase) was inactive: -1.36%. In the case of `O=C(O)CNc1ccc([As](=O)(O)O)cc1`, the activity (quench increase) is reported as inactive: 0.418%. In the case of `COC(=O)C1(C)COP(=O)(Nc2ccccc2)OC1` (centres undefined), the activity (quench increase) is reported as inactive: 1.67%. With `O=[N+]([O-])c1cccc(NC2=NCC(CBr)S2)c1` (centres undefined) the activity (quench increase) was inactive: 2.13%. In the case of `O=[N+]([O-])c1ncn(CCn2ncnc2[N+](=O)[O-])n1`, the activity (quench increase) is reported as inactive: -1.83%. For `CC(C)(C)C(=O)NC(Sc1ccncn1)C(Cl)(Cl)Cl` (centres undefined), the activity (quench increase) was inactive: 1.36%. In the case of `Cc1ccc(NP(=O)(Oc2ccccc2)Oc2ccccc2)nc1`, the activity (quench increase) is reported as inactive: -3.4%. For `O=[N+]([O-])c1cc([N+](=O)[O-])c(CCNc2ccccc2)c([N+](=O)[O-])c1`, the activity (quench increase) was inactive: -1.19%. For `COc1ccc(C2=NCC(CBr)S2)cc1` (centres undefined), the activity (quench increase) was inactive: -2.19%. For `c1cc(-c2nn[nH]n2)ccc1-c1nn[nH]n1`, the activity (quench increase) was inactive: -4.19%. In the case of `CC(C)c1nc(Nc2ccccc2)n(P(=O)(N(C)C)N(C)C)n1`, the activity (quench increase) is reported as inactive: -0.102%. For `CC(C)=N/N=C(\N)N[N+](=O)[O-]`, the activity (quench increase) was inactive: -4.33%. In the case of `Nc1ccc([As](=O)(O)c2ccc(N)cc2)cc1`, the activity (quench increase) is reported as inactive: -0.511%. In the case of `C[N+]1=C2C=CC=CC=C2SC12C([N+](=O)[O-])=CC([N+](=O)[O-])=C[C-]2[N+](=O)[O-]` (centres undefined), the activity (quench increase) is reported as inactive: 0.833%. In the case of `Clc1ccc(Cl)c(NC2=NCC(CBr)S2)c1` (centres undefined), the activity (quench increase) is reported as inactive: 0.17%. In the case of `Cc1ccc(OP(=O)(Nc2nccs2)Oc2ccc(C)cc2)cc1`, the activity (quench increase) is reported as inactive: 0.0045%. With `CN(C(=O)Cc1ccc(Cl)c(Cl)c1)[C@H]1CCCC[C@H]1N1CCCC1` the activity (quench increase) was inactive: -0.049%. For `Cc1ccc(N/C(=N/P(=O)(N2CCOCC2)N2CCOCC2)N2CCOCC2)cc1`, the activity (quench increase) was inactive: -3.2%. With `NC(=O)c1cc([N+](=O)[O-])cc([N+](=O)[O-])c1N` the activity (quench increase) was inactive: -1.86%. For `O=C(NC(Sc1ccncn1)C(Cl)(Cl)Cl)c1ccccc1` (centres undefined), the activity (quench increase) was inactive: 0.9%. With `Nc1cc(N)c2nonc2c1[N+](=O)[O-]` the activity (quench increase) was inactive: 0.422%. For `CCn1c(=O)n(C2CCN(CC3CCCCCCC3)C[C@H]2CO)c2ccccc21` (some centres undefined), the activity (quench increase) was inactive: 2.03%. In the case of `Cc1ccc(NP(=O)(Oc2ccccc2F)Oc2ccccc2F)nc1`, the activity (quench increase) is reported as inactive: -1.13%. With `CN(C(=O)Cc1ccc(Cl)c(Cl)c1)[C@H]1CCCC[C@@H]1N1CCCC1` the activity (quench increase) was inactive: -3.2%. In the case of `O=P(Nc1nc2ccc(Cl)cc2s1)(c1ccccc1)c1ccccc1`, the activity (quench increase) is reported as inactive: 4.61%. For `CN(C)P(=O)(N(C)C)n1c(Nc2ccccc2)nnc1-c1ccccc1`, the activity (quench increase) was inactive: -2.23%. With `CC(=O)Nc1ccc([As](=O)(O)O)cc1` the activity (quench increase) was inactive: 4.64%. In the case of `O=C(O)c1ccccc1[As](=O)(O)O`, the activity (quench increase) is reported as inactive: -2.09%. With `CCCC1OP(N)(=O)OCC1CC` (centres undefined) the activity (quench increase) was inactive: -1.04%. For `Nc1cccc2ccc([As](=O)(O)O)cc12`, the activity (quench increase) was inactive: -1.65%. With `CN(C(=O)Cc1ccccc1)C1CC[C@@]2(CCCO2)C[C@@H]1N1CCCC1` (some centres undefined) the activity (quench increase) was inactive: 0.977%. In the case of `O=P1(N(CCCl)CCCl)OCCC2CCCCN21` (centres undefined), the activity (quench increase) is reported as inactive: 1.91%. For `c1ccc(-c2nn[nH]n2)c(-c2nn[nH]n2)c1`, the activity (quench increase) was inactive: -2.42%. With `Cc1ccc(NP(=O)(Oc2cccc(C)c2)Oc2cccc(C)c2)nc1` the activity (quench increase) was inactive: 1.54%. For `CCNC(=S)/N=C(\N)N[N+](=O)[O-]`, the activity (quench increase) was inactive: -0.09%. In the case of `O=C(NC1CCS(=O)(=O)C1)NP(=S)(Oc1ccccc1)Oc1ccccc1` (centres undefined), the activity (quench increase) is reported as inactive: -0.459%. With `CC(NC(=O)COC(=O)C(O)(c1ccccc1)c1ccccc1)c1ccccc1` (centres undefined) the activity (quench increase) was inactive: 1.32%. For `Cc1ccccc1OP(=O)(Nc1ccccn1)Oc1ccccc1C`, the activity (quench increase) was inactive: -0.076%. In the case of `O=c1c2cc([N+](=O)[O-])ccc2[nH]c2c([N+](=O)[O-])cc([N+](=O)[O-])cc12`, the activity (quench increase) is reported as inactive: -12.7%. For `CN(C)C(=O)Oc1noc2ccccc12`, the activity (quench increase) was inactive: 2.37%. In the case of `O=C(OC1CN2CCC1CC2)c1ccccc1` (centres undefined), the activity (quench increase) is reported as inactive: -0.829%. With `Cc1ccc(OP(=O)(Nc2ccccn2)Oc2ccc(C)cc2)cc1` the activity (quench increase) was inactive: -2.59%. With `CC(C)(C)C(=O)NC(Sc1ccccc1)C(Cl)(Cl)Cl` (centres undefined) the activity (quench increase) was inactive: -0.317%. For `CCc1cc(O)c([N+](=O)[O-])c(C)c1[N+](=O)[O-]`, the activity (quench increase) was inactive: 2.72%. In the case of `CCOc1ccc(C2=NCC(CBr)S2)cc1` (centres undefined), the activity (quench increase) is reported as inactive: 1.24%. In the case of `CC(=O)Nc1ccc([As](=O)(O)O)c(O)c1`, the activity (quench increase) is reported as inactive: 1.15%. With `CC(=O)Nc1ccc(Oc2c([N+](=O)[O-])cc([N+](=O)[O-])cc2[N+](=O)[O-])cc1` the activity (quench increase) was inactive: 0.639%. With `Cc1ccccc1CN(C)C(=O)COC(=O)C(O)(c1ccccc1)c1ccccc1` the activity (quench increase) was inactive: 2.76%. For `C[C@H]1OP(=O)(Oc2ccccc2)C[C@@H]2O[C@@H]21` (some centres undefined), the activity (quench increase) was inactive: 0.383%. In the case of `C[C@@H]1C=CCP(=O)(Oc2ccccc2)O1` (some centres undefined), the activity (quench increase) is reported as inactive: -0.029%. For `CC(=O)c1ccc(N2CC2c2ccncc2)cc1` (centres undefined), the activity (quench increase) was inactive: -0.258%. For `N#C/C(=C\c1ccc(N(CCBr)CCBr)cc1)C(N)=O`, the activity (quench increase) was inactive: -1.22%. For `COC(=O)C1(C)COP(=O)(NCc2ccccc2)OC1` (centres undefined), the activity (quench increase) was inactive: 4.5%. With `O=P(Nc1nc2ccccc2s1)(c1ccccc1)c1ccccc1` the activity (quench increase) was inactive: 4.21%. With `C[C@H]1OP(=O)(Oc2ccccc2)[C@H](O)[C@H](O)[C@H]1N=[N+]=[N-]` (some centres undefined) the activity (quench increase) was inactive: -1.05%. With `O=P(Nc1ccccn1)(c1ccc(Br)cc1)c1ccc(Br)cc1` the activity (quench increase) was inactive: -2.9%. In the case of `CN(C)C1(CNC(=O)c2ccc(Cl)c(S(N)(=O)=O)c2)CCCCC1`, the activity (quench increase) is reported as inactive: -1.05%. In the case of `COc1ccc(N)c([N+](=O)[O-])c1[N+](=O)[O-]`, the activity (quench increase) is reported as inactive: 1.69%. In the case of `Nc1ccc(CCCCOc2ccccc2)cc1`, the activity (quench increase) is reported as inactive: 2.76%. For `C/C(N)=N\P(=O)(OCc1ccccc1)OCc1ccccc1`, the activity (quench increase) was inactive: 1.74%. In the case of `Nc1ccc([As](=O)(O)c2ccc([N+](=O)[O-])cc2)cc1`, the activity (quench increase) is reported as inactive: -0.189%. For `O=[As](O)(c1ccccc1)c1ccc(O)cc1`, the activity (quench increase) was inactive: -1.12%. In the case of `O=[N+]([O-])c1ncn(CCn2cnc([N+](=O)[O-])n2)n1`, the activity (quench increase) is reported as inactive: -1.16%.
